In patent publication US12062444B2, “Methods and compositions related to triple-negative breast cancer” (THE UNIVERSITY OF CHICAGO, priority 2017, dated 2024):

What was measured:
[1] = test system: GR chromatin association in MDA-MB-231 cells; assay: GR ChIP-sequencing and analysis; assay type: cell-based, human; details: co-treatment with Dex
Experimental: MDA-MB-231 cells were grown to 80% confluence in 15-cm dishes in DMEM with 10% FBS, followed by 48h in DMEM supplemented with 2.5% charcoal-stripped FBS. […] Cells were cross-linked with 1% formaldehyde, quenched with glycine (final concentration of […]), and harvested. After cell lysis with ChIP lysis buffer (Magna ChIP A Chromatin Immunoprecipitation Kit, EMD Millipore), cells were sonicated to achieve the majority of DNA fragments between 200-400 bp. Input samples were preserved at -80° C. […] Following manufacturer's protocol, chromatin was eluted from GR ChIP and input samples. Library build and sequencing was performed at the University of Oregon Genomics Core facility using the NextSeq 500 sequencer. Quality control on sequences and adapter sequencing trimming was performed using Kapa Biosystems Illumina Library Quantification Kit. ChIP-seq analysis was carried out using the Galaxy platform (usegalaxy.org (111)). […] GR peaks for each treatment were normalized to its own input control sample. […] Selected GR peak locations in hg19 and GR peak maps were also individually analyzed using Integrative Genomics Viewer, IGV (Broad Institute (116)).

[2] = test system: GR-regulated gene expression in MDA-MB-231 cells; assay: Gene expression microarray and analysis; assay type: cell-based, human; details: n=462 genes; cell survival, invasion, EMT pathways; FIG. 13
Experimental: MDA-MB-231 cells were grown to 80% confluence in 15-cm dishes in DMEM with 10% FBS. […] Following compound exposure, cells were washed in PBS, and lysed in RNA lysis buffer (Qiagen) overnight at -80° C. RNA extraction, with accompanying DNase treatment, was performed using the RNeasy kit (Qiagen) following the manufacturer's protocol. […] The University of Chicago Genomics Core facility carried out the reverse transcription on the samples, followed by microarray using the Affymetrix Human U133 Plus 2.0 platform. […] A principal components analysis (PCA) was performed using the prcomp function in R (Q-mode PCA using singular value decomposition). […] Dex-regulated genes were overlapped with a list of n=5,170 differentially-expressed tumor-derived genes (in the same direction) from GR-high versus GR-low BCs (52). Ingenuity Pathway Analysis (Qiagen) of the n=462 patient-relevant and antagonist-inhibited genes was performed to obtain Activation Z-scores of the most significant Diseases and Biofunctions (cell functions).

CCOC[C@]12Cc3cnn(-c4ccc(F)cc4)c3C=C1CCN(S(=O)(=O)c1ccc(C(F)(F)F)cc1)C2 [C297]
Relative GR promoter enrichment (+/−3kb) [1]: decrease in relative GR promoter enrichment
Pathway activation Z-score (Ingenuity Pathway Analysis) relative to Dex [2]: relative dampening of Z-score magnitude
